Values quoted from earlier work as cited in US12649758B2, “Industrial method for simultaneously preparing Stevia rebaudiana chlorogenic acid and stevioside” (Chenguang Biotech Group Co., Ltd., priority 2018, dated 2026).

solubility in a lipophilic organic solvent (lipophilic organic solvent): hardly soluble
solubility in water (water, 25° C.): 4%
Substance: mono-caffeoyl chlorogenic acid
